## Apparent affinities of Ab-14 variants for a coronavirus HR2 peptide

Antigen: PDVDLGDISGINAS, a 14-residue peptide of the SARS-CoV-2 spike HR2 region.

Each scFv is VH, three GGGGS repeats, VL, as in the parent Ab-14, and differs from it in the CDRs of the light chain only.
VH: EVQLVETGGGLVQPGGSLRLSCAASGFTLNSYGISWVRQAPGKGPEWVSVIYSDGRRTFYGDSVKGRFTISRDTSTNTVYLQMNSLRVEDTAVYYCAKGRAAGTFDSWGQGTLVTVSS
VL: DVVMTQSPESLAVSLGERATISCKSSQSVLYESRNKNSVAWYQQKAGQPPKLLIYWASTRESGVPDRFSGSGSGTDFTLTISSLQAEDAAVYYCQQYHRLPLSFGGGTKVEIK

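This is the validation round: designs drawn from the data on random variants, tested in the same kind of assay. Their group label is 14L_En_Gen (En: ensemble of fine-tuned language models; Gen: genetic algorithm). AlphaSeq pools MATa yeast showing the antibodies with MATalpha yeast showing the peptide. Binding brings cells together so that they mate, and sequencing counts the barcode pairs among the diploids. The ratio of observed to expected reads was calibrated, replicate by replicate, on BCL2-family standards whose Kd was known from biolayer interferometry. Each pool was mated in six replicate cultures.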

The parent's light chain CDRs are KSSQSVLYESRNKNSVA, WASTRES, QQYHRLPLS; each variant's own CDRs replace them letter for letter. The read-out is the apparent dissociation constant on a log10 scale (nM): the lower, the stronger. A mean of the replicates is given; it leaves out those without a signal. A pair that was not seen in that replicate is written "ND"; this usually means weak binding, but a binder can also be missed. The range of this assay differs from that of the first round, and the authors advise against merging the two.

| CDR-L1 | CDR-L2 | CDR-L3 | log10 Kd (nM) by replicate | mean log10 Kd (nM) | empty controls |
|---|---|---|---|---|---|
| MISQLYNMGTFAINSVA | QASERSE | QQYDRLPLI | 1.21 1.61 1.25 1.63 1.74 2.00 | 1.57 | 2 of 18 (2.98) |
| MIHEVMGLVSHKQSSIA | DNSTRED | QQYDRLPLS | ND ND ND ND ND ND | ND | 0 of 18 |
| QISMLLNFELKIGNNVA | QMETRVN | QQYDRLPLS | 1.72 2.35 1.66 2.40 1.85 2.26 | 2.04 | 0 of 18 |
| HITHGMYVKGRHHSSIA | QAETRAK | QQYDRLPLI | ND ND ND ND ND ND | ND | 0 of 18 |
| KLTMITGLEKVSGNNVA | EMETREK | QQYNRLPLS | 0.38 0.22 -0.25 0.25 0.12 0.07 | 0.13 | 0 of 18 |
| KLSMITGHQSTQKNNVA | EMVTREE | QQYNRLPLA | 0.27 0.07 0.01 -0.13 -0.06 0.05 | 0.04 | 1 of 18 (2.41) |
| NIYQAMHTLSQMKDNVA | DVEERGS | QQYFRLPLS | 0.34 0.49 0.61 0.69 0.49 0.74 | 0.56 | 0 of 18 |
| KVSEFMRGLSMRKDSIA | DNNTRSN | QQYDRLPLS | 0.67 0.17 0.18 0.83 0.34 0.65 | 0.47 | 1 of 18 (3.52) |
| MISNVMNTLTRQGNNVA | DLTEREK | QQYFRLPLS | 0.44 0.48 0.52 -0.02 0.27 0.58 | 0.38 | 1 of 18 (3.18) |
| TISMVMNHMTRNKNNVA | NMDMRTV | QQYDRLPLS | 0.19 0.26 -0.02 0.06 0.25 -0.03 | 0.12 | 0 of 18 |
| IVSQLMLWGWMAKNSIA | EAVTRLN | QQYDRLPLF | ND ND ND ND ND ND | ND | 0 of 18 |
| TISQMTSWMSNQKNNVA | EVQTREN | QQYDRLPLS | 0.90 0.80 1.35 1.12 0.65 1.00 | 0.97 | 2 of 18 (2.54) |
| QLSMITGHQSMIKNNVA | EMETREN | QQYDRLPLA | 0.67 0.20 0.45 0.44 0.41 0.54 | 0.45 | 0 of 18 |
| MVTQMAMTGMMSKRSVA | NASTREN | QQYHRLPLI | 0.96 0.37 0.14 0.46 0.13 0.67 | 0.46 | 0 of 18 |
| QIYQAMHTLMQQKNNVA | DVTERNN | QQYFRLPLS | 0.35 0.23 -0.07 0.04 0.09 0.46 | 0.18 | 1 of 18 (1.71) |
| IVSQLMLWGMHAKNSIA | EAQTRLN | QQYERLPLF | ND ND ND ND ND ND | ND | 0 of 18 |
| KLSMITGHMHMSKNNVA | EMVTRAN | QQYDRLPLS | 0.29 0.32 0.21 0.05 0.02 0.33 | 0.21 | 1 of 18 (4.10) |
| TISQVMNTLTRHGNNVA | DLAERED | QQYFRLPLS | 0.70 0.63 0.50 0.28 0.34 0.63 | 0.51 | 2 of 18 (2.45) |
| TIGQTLMSGVRNRSNVA | EVSQRLN | QQYDRLPLF | 1.70 1.28 1.31 1.27 0.96 1.40 | 1.32 | 2 of 18 (3.09) |
| IVSQLMLWGMHVKNSIA | EAQTRIN | QQYERLPLF | -0.52 0.41 -0.40 -0.20 -0.23 -0.60 | -0.26 | 1 of 18 (2.83) |
| MISQMYNMGQFAINSVA | QASQRNE | QQYDRLPLT | 1.98 2.33 2.17 2.78 2.63 2.29 | 2.37 | 1 of 18 (2.19) |
| KLSQITGHMSVSKNNVA | EMVTRVN | QQYNRLPLS | 0.38 0.57 0.48 0.53 0.55 0.60 | 0.52 | 0 of 18 |
| KLSSVTGHMSMAKNNVA | EMVTREN | QQYNRLPLS | 0.02 -0.02 -0.03 -0.08 0.03 0.12 | 0.01 | 1 of 18 (1.46) |
| HVSMLTLGGLKERNSVA | QMTTREN | QQYDRLPLS | 0.70 0.85 0.65 0.82 0.61 0.77 | 0.73 | 0 of 18 |
| TISQLMNMGQFAINSVA | QANIRNS | QQYDRLPLI | 0.96 1.26 1.22 1.67 0.87 0.66 | 1.11 | 2 of 18 (2.32) |
| KISQMVKVGATHANSIA | EMVTRAK | QQYHRLPLA | ND 2.14 ND 2.59 ND ND | 2.36 | 0 of 18 |
| HMSMITLMGSRNRNSVA | QMTTREN | QQYDRLPLS | 0.74 0.71 0.62 0.59 0.71 0.85 | 0.70 | 0 of 18 |
| MLSEVLHMLGVQKNSIA | DLVLRAN | QQYHRLPLS | ND ND ND ND ND ND | ND | 0 of 18 |
| MLSQMWALGMKASNSVA | QASMRFN | QQYHRLPLM | ND ND ND ND ND ND | ND | 0 of 18 |
| KVSEFMKGLMMRTDSIA | DNVTRNN | QQYDRLPLS | 2.12 2.04 1.48 2.10 2.16 3.00 | 2.15 | 5 of 18 (3.05) |
| KLRSVTGTEKVHGNNVA | EMETRER | QQYNRLPLS | 1.59 1.30 1.32 0.94 2.10 1.32 | 1.43 | 0 of 18 |
| MISQLYNMGQFAINSVA | QASERYN | QQYDRLPLM | 0.32 0.20 0.58 0.17 0.55 0.52 | 0.39 | 1 of 18 (2.97) |
| KIGMTLNTVLHQKNNVA | DLVEREN | QQYFRLPLS | 0.53 0.16 0.27 0.01 0.12 0.31 | 0.23 | 0 of 18 |
| KITALMRFEQKNSNNIA | EVSMRTK | QQYVRLPLA | -0.08 -0.64 0.04 -0.28 -0.44 -0.21 | -0.27 | 0 of 18 |
| SISQFMKSLSAHINNVA | DMTNRED | QQYDRLPLS | 0.58 0.43 0.11 0.32 0.36 0.66 | 0.41 | 3 of 18 (3.00) |
| MISQLMNMGQFAINSVA | QANIRNS | QQYDRLPLI | 2.06 0.93 0.83 1.14 1.40 1.14 | 1.25 | 1 of 18 (2.51) |
| IVSQLMIWGMHAKNSIA | EAQTRLN | QQYERLPLF | 0.46 0.19 0.62 1.16 0.49 1.18 | 0.68 | 0 of 18 |
| MVTQMAMTGMMSKRSVA | NAETRES | QQYHRLPLI | 1.13 0.95 0.93 0.56 0.57 1.26 | 0.90 | 0 of 18 |
| KVSEFMKGLMMRTDSIA | DNVTREN | QQYDRLPLS | 1.17 2.56 2.16 1.88 2.67 1.97 | 2.07 | 0 of 18 |
| KLTMVTGTEKVRGNNVA | EMETRER | QQYNRLPLA | 0.81 0.69 0.52 0.50 0.70 1.00 | 0.70 | 1 of 18 (1.92) |

A selection of 5 entries from above:

| CDR-L1 | CDR-L2 | CDR-L3 | log10 Kd (nM) by replicate | mean log10 Kd (nM) | empty controls |
|---|---|---|---|---|---|
| IVSQLMLWGMHVKNSIA | EAQTRIN | QQYERLPLF | -0.52 0.41 -0.40 -0.20 -0.23 -0.60 | -0.26 | 1 of 18 (2.83) |
| MLSQMWALGMKASNSVA | QASMRFN | QQYHRLPLM | ND ND ND ND ND ND | ND | 0 of 18 |
| KLTMVTGTEKVRGNNVA | EMETRER | QQYNRLPLA | 0.81 0.69 0.52 0.50 0.70 1.00 | 0.70 | 1 of 18 (1.92) |
| MISQMYNMGQFAINSVA | QASQRNE | QQYDRLPLT | 1.98 2.33 2.17 2.78 2.63 2.29 | 2.37 | 1 of 18 (2.19) |
| IVSQLMIWGMHAKNSIA | EAQTRLN | QQYERLPLF | 0.46 0.19 0.62 1.16 0.49 1.18 | 0.68 | 0 of 18 |

The authors' rule: three or more of the six replicates give a measured affinity, fewer mean a poor binder. Background: pairings of all light chain designs with three empty control strains gave a value in 4% of cases (median 2.64, 5th percentile 1.59). Values in that range, when seen in few replicates, are hard to tell from nonspecific mating. For each scFv, signals with the empty controls are counted beside the result, with their mean in brackets. Of ten entries with the parent sequence, four were seen in most replicates (averages 0.34 to 2.37), three in one and three in none, so single entries are noisy.

Data: MIT Lincoln Laboratory AlphaSeq set, Li et al. 2023, doi:10.1038/s41467-023-39022-2, as distributed in FLAb.